Screening results as filed in PubChem BioAssay.
Only some compounds are listed: those with a hit (about 0.14% of all), similar ones and a draw of the others.
Rango release inh: prevents RanGTP from dissociating the Rango-importin beta complex; Biochemical FRET Rango-importin beta, RanGTP-induced dissociation; AID 540253; O95149+P62826; Potency, µM (top dose mostly 46.1 µM), for inactives: at the top dose activity change, negative = inhibition; hit rate 0.071% among 340,000; also: % of control where 0% means no effect; nearly all actives have a fitted effect of over 45% in size
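Two FRET readings bracket the reaction: one 5 min after compound meets Rango–importin beta, another 45 min after RanGTP-RCC1 (0.6 uM Ran, 0.2 uM RCC1, 2 mM GTP) is added. Only the second defines inhibition.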
Rango-impB inh: Rango-importin beta binding inhibition; Q14974; Rango CFP/YFP FRET sensor + importin beta, 45 min; Potency, µM (top dose mostly 92.2 µM), for inactives: at the highest dose inhibition of complex formation; hit rate 0.031% among 340,000; AID 540263;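 also: 0% = DMSO wells and 100% = buffer wells lacking importin beta; nearly all actives have a fitted effect of over 15% in size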
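Inhibition scored from the CFP 486 nm/YFP 530 nm FRET ratio 45 min after adding 0.125 microM importin beta to 50 nM Rango biosensor preincubated 5 min with compound (room temperature, PBS with DTT, Tween-20, BSA). No-importin wells as positive control.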
ERG Ets-DNA blk: ERG Ets/DNA interaction inhibition. P11308. fluorescence polarization, His-ERG Ets domain / labelled DNA. Potency, µM (doses to about 76.9 µM), without a hit: at the highest dose FP activity, negative = inhibition, usual class: inhibitors. hit rate 0.028% among 370,000; active = well fitted inhibition curve with a large enough effect in the polarisation, with a control signal flat; inconclusive = small, poorly fitted or top-dose-only effect, or effect the other way, or a change in a side signal; inactive = no such curve, though single readings can be large or run the other way; the % refers to the polarisation;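 also: polarization taken with two DNA probes labelled with fluorescein and Texas red; % of control where 0% means no effect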
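His-tagged ERG Ets domain (1 uM in the protein solution; 300mM KCl, 50mM Tris-HCl, 1mM EDTA, 1mM DTT, pH 7.5) received compound, then a probe mix of 5 nM fluorescein-DNA and 100nM Texas-615-DNA. Fluorescence polarization was read for both dyes.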
RGS4 inh: human RGS4 inhibition; Potency, µM (series often up to 114 µM), for inactives: at the top dose activity change, negative = inhibition, most hits filed as inhibitors; AID 504845; hit rate 0.039% among 390,000; Transcreener GDP fluorescence polarization, RGS4-accelerated GTP hydrolysis; P49798; active = well fitted inhibition curve with a large enough effect; inconclusive = small, poorly fitted or top-dose-only effect; inactive = no such curve, though single readings can be large or run the other way; also: % is scaled to controls: 0 for no effect and ±100 for the full control effect; nearly all actives have a fitted effect of over 75% in size
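MLSMR compounds (23 nl, pin-transferred) preincubated 10 min at room temperature with a 500nM (2x) first reagent, then RGS4 at 900nM (2x) plus Transcreener GDP mix added; fluorescence polarization (620/688 nm) read before and after 90 min at 30 °C.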
Numbers without * were called inactive; ? = inconclusive; nt = no result given; ! = a repeat was not active; [ ] = another dose, or the depositor's remark. Unless noted, calls follow the shape of the full dose curve. Potency is read from the fitted curve at half-maximal effect.

1. COc1ccc(-c2nc3ccc(NC(C)=O)cc3c(=O)n2Cc2cccc(Cl)c2)cc1COc1ccc(NC(C)=O)cc1
2. CCc1ccc(/C=C2\Oc3cc(OS(C)(=O)=O)ccc3C2=O)cc1
3. CN(C)CCNc1oc(COc2ccc(Cl)cc2Cl)nc1C#N
4. NNC(=O)c1ccc(CN2C(=O)c3cccc4cccc2c34)cc1
5. COc1ccccc1/C=N/NC(=O)c1ccc(CN2C(=O)c3cccc4cccc2c34)cc1
Assay by compound | 1 | 2 | 3 | 4 | 5
Rango release inh | nt | 8.2µM* | 16µM* | 18µM* | -29%
Rango-impB inh | nt | ? | ? | ? | ?
ERG Ets-DNA blk | nt | 4% | -3% | -6% | -1%
RGS4 inh | -41% | -16% | -11% | -8% | 0%

One compound at a time, as listed above:
`CCc1ccc(/C=C2\Oc3cc(OS(C)(=O)=O)ccc3C2=O)cc1` in the list: Rango release inh = 8.2µM*; Rango-impB inh = ?; ERG Ets-DNA blk = 4%; RGS4 inh = -16%
`CN(C)CCNc1oc(COc2ccc(Cl)cc2Cl)nc1C#N` in the list: Rango release inh = 16µM*; Rango-impB inh = ?; ERG Ets-DNA blk = -3%; RGS4 inh = -11%

The results go on:
6. S=C(NCCCc1cnc[nH]1)NCCCN(Cc1ccc(Cl)cc1)c1ncc(Br)cn1
7. O=C(Oc1ccc2ccc(=O)oc2c1)c1ccco1
8. O=C(Nc1ccccc1F)c1ccc2c(Cl)c3c(nc2c1)CCC3
9. c1ccc(Cn2nnnc2C(c2ccccc2)N2CCN(Cc3ccncc3)CC2)cc1 (centres undefined)
10. O=C(COC(=O)c1ccc2[nH]c3c(c2c1)CCCC3)Nc1ccccc1
Assay by compound | 6 | 7 | 8 | 9 | 10
Rango release inh | nt | 16µM* | nt | nt | ?
Rango-impB inh | nt | ? | nt | nt | ?
ERG Ets-DNA blk | nt | 4% | 7% | nt | -1%
RGS4 inh | -2% | 41% | 24% | 11% | -44%

11. Cc1cccc(C)c1NC(=O)COC(=O)c1ccc2[nH]c3c(c2c1)CCCC3
12. COc1cc(N)c(Cl)cc1C(=O)CCC1CCN(CCNS(C)(=O)=O)CC1
13. COc1cc(COc2cc(N)c(Cl)cc2C(=O)CCC2CCN(CCNS(C)(=O)=O)CC2)cc(OC)c1
14. Cc1ccc(-c2nn3c(-c4ccccc4C)nnc3c3ccccc23)cc1
15. COc1cccc(CNC(=O)CSC2=Nc3ccccc3C3=NC(C)C(=O)N23)c1OC (centres undefined)
Assay by compound | 11 | 12 | 13 | 14 | 15
Rango release inh | 23µM* | nt | nt | nt | nt
Rango-impB inh | ? | nt | nt | nt | nt
ERG Ets-DNA blk | 3% | nt | nt | -5% | 2%
RGS4 inh | 24% | 38µM*! | 130%[56.9 µM] | -20% | -25%

16. O=C1CCCC(O)=C1N=Nc1ccc(C(=O)O)cc1
17. O=C1CCCC(O)=C1N=Nc1ccc2c(c1)OCO2
18. Cc1nc2ccccc2c(=O)n1/N=C/c1cc(Br)ccc1O
19. COc1ccc(Br)cc1/C=N/n1c(C)nc2ccccc2c1=O
20. O=C(Cn1c(=O)n(Cc2ccc(F)cc2)c(=O)c2sc3ccccc3c21)Nc1ccc(F)cc1F
Assay by compound | 16 | 17 | 18 | 19 | 20
Rango release inh | -23% | 0% | 10µM* | 2% | nt
Rango-impB inh | ? | 6% | ? | 2% | nt
ERG Ets-DNA blk | 28µM* | 1% | -4% | -1% | -3%
RGS4 inh | 9%[11.4 µM] | 4% | -1%[56.9 µM] | 4% | -11%

21. C/C=N\NC(=O)CNC(=O)CNC(=O)c1ccccc1
22. C#CCOCCOCCOCCNc1nc(N2CCN(C(=O)[C@H](CCCN=C(N)N)n3cc(C(N)[C@@H](C)CC)nn3)CC2)nc(N2CCN(C(=O)[C@H](CCCCN)n3cc([C@@H](N)[C@H](C)CC)nn3)CC2)n1 (some centres undefined)
23. C#CCOCCOCCOCCNc1nc(N2CCN(C(=O)[C@H](CCCN=C(N)N)n3cc(C(N)[C@@H](C)CC)nn3)CC2)nc(N2CCN(C(=O)[C@H](CCC(=O)O)n3cc([C@@H](N)CCCCN)nn3)CC2)n1 (some centres undefined)
24. C#CCOCCOCCOCCNc1nc(N2CCN(C(=O)CCCCCCCCCCNC(=O)[C@H]([C@@H](C)CC)n3cc(CCCCCN)nn3)CC2)nc(N2CCN(C(=O)CCCCCCCCCCNC(=O)[C@H](CCCCN)n3cc(CCCC(=O)O)nn3)CC2)n1
25. C#CCOCCOCCOCCNc1nc(N2CCN(C(=O)CCCCCCCCCCNC(=O)[C@H]([C@@H](C)CC)n3cc(CCCCN=C(N)N)nn3)CC2)nc(N2CCN(C(=O)CCCCCCCCCCNC(=O)[C@H](CCCCN)n3cc(C)nn3)CC2)n1
Assay by compound | 21 | 22 | 23 | 24 | 25
Rango release inh | 35% | 14% | 8% | -4% | 0%
Rango-impB inh | -3% | 58µM* | ? | 5% | 65µM*
ERG Ets-DNA blk | 35µM* | 2% | -7% | 3% | 15%
RGS4 inh | ? | 1% | 15% | -34% | ?

26. CN1CCc2c(sc(NC(=O)CS(=O)(=O)c3ccccc3)c2C(N)=O)C1
27. CCOc1ccc(-n2nc3ccc(N)cc3n2)cc1
28. CCOc1cc(/C=C2\CCC/C(=C\c3cc(Cl)c(O)c(OCC)c3)C2=O)cc(Cl)c1O
29. CCOc1cc(/C=C2\CN(C)C/C(=C\c3ccc(O)c(OCC)c3)C2=O)ccc1O
Assay by compound | 26 | 27 | 28 | 29
Rango release inh | 23µM* | 5.2µM* | 6.5µM* | -1%
Rango-impB inh | ? | ? | ? | ?
ERG Ets-DNA blk | 3% | 0% | 19% | 14%
RGS4 inh | 23% | -39% | -24%[11.4 µM] | -40%
